Patent US20080160077A1, “Soft Gel Formulations” (Zymes, LLC, priority 2006, published 2008)

Assay: Particle size distribution of micelles in water by dynamic light scattering (DLS)
Assay type: physicochemical
Conditions: diluted with water, 25° C.
Experimental: Formulations of PTS and CoQ10 (3:1) as well as PTS alone were diluted with water (8×, 16×, and 32× mg/mL). […] The resulting solutions were filtered through a filter cartridge to remove dust particles, transferred to a glass sample tube and placed into an oil bath for temperature control. The particle size distribution of the formed micelles in the formulations were subsequently measured at 25° C. using a Brookhaven Dynamic Light Scattering (DLS) detector equipped with an Avalanche photodiode detector and an MG vertically polarized 35 mmV Helium-Neon 633 nm laser.

Question: For “polyoxyethanyl-tocopherol-sebacate [PTS]”, which “size distribution width compared with CoQ10/PTS formulations” value is on record?
Answer: broader
